Details: pH 5

## Cn1c(C(=O)NC2(c3ccc(C(=O)O)c(F)c3)COC2)cc2c(Cl)c(Cl)ccc21 [Compound 7]
  PAMPA: ND 152 (pH 5.0) nm s^−1
